Apparent affinities of Ab-95 variants for a coronavirus HR2 peptide

Binding partner: SARS-CoV-2 spike HR2 peptide, sequence PDVDLGDISGINAS.

Ab-95 is the parent antibody, in scFv form: VH, then the linker GGGGSGGGGSGGGGS, then VL. The heavy chain is unchanged in all variants.
VH: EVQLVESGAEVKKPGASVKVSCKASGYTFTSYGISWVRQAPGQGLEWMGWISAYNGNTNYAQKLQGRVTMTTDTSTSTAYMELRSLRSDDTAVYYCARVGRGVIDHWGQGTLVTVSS
VL: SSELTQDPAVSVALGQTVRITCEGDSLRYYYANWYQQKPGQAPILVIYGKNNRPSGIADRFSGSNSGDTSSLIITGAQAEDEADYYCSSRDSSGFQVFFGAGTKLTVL

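The parent was found by panning a naive human phage display library on the peptide. AAYL52 was designed without a model: most single CDR substitutions and a random sample of double and triple ones. Affinity was read by AlphaSeq, a pooled yeast mating assay with surface-displayed partners. The frequency of each diploid, read from paired DNA barcodes, reflects how well the two displayed proteins bind. Scores were corrected for input abundance and mapped to Kd with protein pairs of known affinity run in the same pool. Each pool was mated in three replicate cultures.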

Positions count from residue 1 of the parent VL; P54H puts H in place of P.
Scale: log10 of Kd in nM, estimated from mating counts; low values are strong binders.
"n.d." means that the variant was in the library but no mating with the target was seen in that replicate; the authors take this as a sign of poor binding, and no number exists.
Parent in this assay: reference entry 2.31, copy in this library 2.25.
As a blank, each scFv also met three strains without target: over library AAYL52, 28% of these pairings were detected, typically at 3.91 and seldom below 2.90. Also given: how often the same scFv was detected with the empty control strains, with their mean in brackets.

changes | log10 Kd (nM) by replicate | signal with controls
P54H/D91S/F95Q | 2.39 / 2.61 / 1.89 | 2/9 (3.53)
G24E/S89Q/Q96I | 4.16 / 4.34 / n.d. | 2/9 (4.11)
L27N/K50L/F95N | 3.31 / n.d. / n.d. | 0/9
S26M/N33K/D91N | 3.72 / n.d. / n.d. | 0/9
A32W/N51C/P54E | n.d. / 5.73 / 4.42 | 3/9 (4.60)
E23Y/D25I/Y30Q | 1.67 / 1.61 / 1.01 | 4/9 (3.94)
P54K/F95R/Q96L | 3.47 / n.d. / 3.58 | 3/9 (3.99)
S88D/S89G | 3.45 / 2.98 / 3.95 | 2/9 (4.22)
Y31C/N33E/S92Q | n.d. / n.d. / 4.22 | 3/9 (3.98)
K50W/N51R/N52I | n.d. / n.d. / n.d. | 2/9 (4.97)
G24Y/F95P | 5.29 / 3.32 / 2.57 | 5/9 (3.92)
D25N/Y29Q/A32W | 4.06 / n.d. / n.d. | 0/9
N51L/N52L/S92W | n.d. / 3.33 / n.d. | 5/9 (4.08)
D25K/R53N/S92R | 3.24 / n.d. / 2.55 | 1/9 (4.19)
Y29Q/Y31P/S55V | 1.15 / 0.97 / 0.56 | 3/9 (4.46)
S55G/V97G/F98K | 3.28 / 5.49 / n.d. | 3/9 (3.49)
N33E/S92K/F98Y | 4.27 / 5.04 / n.d. | 1/9 (3.01)
E23I/L27D/V97N | 4.14 / 5.73 / n.d. | 2/9 (4.36)
Y30P/N52H/R53Y | n.d. / n.d. / n.d. | 0/9
D25L/N52M/R90E | 4.23 / n.d. / 3.97 | 1/9 (4.06)
Q96N | 2.57 / 2.65 / 1.75 | 2/9 (4.00)
K50I | 3.05 / 2.79 / 2.62 | 2/9 (4.12)
G24E/L27E/Y31W | n.d. / 3.76 / n.d. | 3/9 (4.54)
E23H/G24Q/N52C | 3.61 / 3.51 / n.d. | 3/9 (3.11)
Y29D/Y30R/S55W | 1.19 / 1.08 / 0.53 | 1/9 (3.57)
N33Q/N51E/S93P | 4.41 / 5.32 / 3.91 | 3/9 (4.08)
S55N/Q96R/F98N | 2.38 / 2.29 / 2.20 | 2/9 (4.16)
R28G/S93M | 4.05 / 2.68 / 3.99 | 3/9 (4.52)
S89V/D91N/F95Y | 1.95 / 1.87 / 2.14 | 3/9 (3.20)
N51C/S55Y/D91H | 3.42 / 4.32 / 4.86 | 3/9 (4.11)
Y29F | 2.27 / 2.65 / 1.81 | 3/9 (4.59)
P54S/S92P | 2.31 / 1.87 / 1.72 | 1/9 (4.70)
L27P/Y31G/N52I | 3.10 / 2.54 / 2.56 | 2/9 (3.42)
D25I/L27G/S88N | 2.26 / 2.66 / 2.42 | 6/9 (3.59)
E23C/D25M/Q96L | 3.05 / 3.15 / 3.65 | 2/9 (4.17)
S88M/R90A/G94E | 2.37 / 2.01 / 1.55 | 1/9 (4.04)
R28L/P54M/S89L | n.d. / 4.08 / n.d. | 2/9 (3.88)
G49S/S92G/F98K | 2.94 / n.d. / n.d. | 1/9 (4.86)
K50M/F98L | 3.03 / 2.91 / 2.51 | 6/9 (4.10)
G24P/A32Q/N52M | 2.87 / n.d. / n.d. | 5/9 (4.50)
Y29T/N51P/Q96H | 2.88 / 2.25 / 2.69 | 3/9 (3.66)
N33Q/S88Y/V97W | n.d. / 4.59 / n.d. | 3/9 (3.51)
D25I/G49H/Q96W | n.d. / 2.39 / 3.13 | 2/9 (4.02)
Y29T/Y30L/N52K | 2.80 / 2.84 / 3.71 | 1/9 (3.29)
R28W/Y31W/G49K | n.d. / 3.65 / n.d. | 5/9 (3.51)
E23F/G49K/R53D | 4.10 / 5.72 / n.d. | 1/9 (3.06)

3 of these entries, quoted again:

| changes | log10 Kd (nM) by replicate | signal with controls |
|---|---|---|
| Y29T/Y30L/N52K | 2.80 / 2.84 / 3.71 | 1/9 (3.29) |
| K50M/F98L | 3.03 / 2.91 / 2.51 | 6/9 (4.10) |
| Y29D/Y30R/S55W | 1.19 / 1.08 / 0.53 | 1/9 (3.57) |

The measurements come from Engelhart et al. 2022 (doi:10.1038/s41597-022-01779-4) through the FLAb antibody collection.